Source: patent US20160081959A1, “METHOD OF USING ARGININE SILICATE INOSITOL COMPLEX FOR WOUND HEALING OR REPAIR” (Glanbia plc, priority 2014, published 2016)
“Also recorded” adds a separate entry of the source.

Experiment: Human clinical PK/PD/safety study of Nitrosigine (plasma arginine, serum silicon)
Type: in vivo
Excerpt: See, Kalman D, Feldman S, Samson A, Krieger D., “A clinical evaluation to determine the safety, pharmacokinetics and pharmacodynamics of an inositol-stabilized arginine silicate dietary supplement in healthy adult males,” The FASEB Journal (April 2014) 28(1 Suppl.): LB418.
Purpose: The purpose of this study was to characterize the PK/PD of Nitrosigine®, an inositol-stabilized arginine silicate dietary supplement.
Type: Prospective, pharmacokinetic (PK)/pharmacodynamic (PD)/safety clinical trial.
Dosing: Nitrosigine® was administered as daily doses of 1,500 mg (3×500 mg tablets). Study subjects were supplied with ASI tablets and instructed to take 3×500 mg tablets with 8 ounces of water at the first treatment visit (Visit 2) and then continue taking this dose daily for 14 days.
Visit 2: single dose evaluation (0-6 hrs), 1500 mg—this was also utilized as the first dose of the 14 day study. It is noted in addition that Visit 2 is also the beginning of the 14 day study, during which subjects take product once a day for 14 days.
Visit 3: 14 days later, single dose (0-6 hrs)
PK Measurements: Plasma arginine and serum silicon levels were measured after the first dose on Day 1 and again after a dose taken on Day 14, after 14 days of dosing. […] (P=0.002); Tmax Day 1: 1.05±0.50 hr.

Substance: arginine silicate inositol [ASI]
- increase of mean plasma arginine relative to baseline (after 1 hour, single dose 1,500 mg, human): greater than 35%
- change in plasma arginine (and serum silica) from baseline, in words (human subjects, single dose of ASI): significant increases in both plasma arginine and serum silica for up to three hours after use; also recorded: statistically significant increases in plasma arginine from baseline at 0.5, 1, 1.5, 2, 3, and 5 hours
- Arginine absorption: time after which increase is significant (plasma arginine, 1,500 mg oral, P=0.002): 0.5 h
- Silicon absorption: time after which increase is significant (serum silicon, 1,500 mg oral, P=0.002): 1 h
